In patent US7939631B2, “APO-2 receptor polypeptides” (Genentech, Inc., priority 1997, dated 2011):

Key:
NF-κB [1] = assay: NF-κB electrophoretic mobility shift assay in HeLa cells; format: cell-based, human; details: 1 μg/ml; FIG. 5B
Experimental: (§1) HeLa cells were transfected with pRK5 expression plasmids encoding full-length native sequence Apo-2, DR4 or Apo-3 and harvested 24 hours after transfection. […] Immunol., 153:5274-5284 (1994)], alone or together with a 50-fold excess of unlabelled probe, or with an irrelevant ^32P-labelled synthetic oligonucleotide […] […] In some samples, antibody to p65/RelA subunits of NF-κB (1 μg/ml; Santa Cruz Biotechnology) was added. DNA binding was analyzed by an electrophoretic mobility shift assay as described by Hsu et al., supra; Marsters et al., supra, and MacKay et al., supra.

NF-κB [2] = assay: NF-κB electrophoretic mobility shift assay in MCF7 cells; format: cell-based, human; details: 1 μg/ml; FIG. 5B
Experimental: as §1

For “TNF-alpha: tumor necrosis factor-α (Genentech, Inc.)”, the “NF-κB activation in HeLa cells” value (NF-κB [1]) was “induced a more pronounced activation in both cell lines” and the “NF-κB activation in MCF7 cells” value (NF-κB [2]) was “induced a more pronounced activation in both cell lines”.
